Reference: ChEMBL document CHEMBL4043066, “Drug Discovery Targeting Bromodomain-Containing Protein 4” (J Med Chem, 2017)

Molecular target: Bromodomain-containing protein 4 (Homo sapiens, UniProt O60885)
Experiment: Inhibition of recombinant human N-terminal His6-tagged BRD4 bromodomain 1 expressed in Escherichia coli using biotinylated histone peptide as substrate after 60 mins by TR-FRET assay

| Compound | K [nM] |
| --- | --- |
| Cc1noc(C)c1-c1cc(C(O)(c2cnccn2)c2c(F)cccc2F)c2[nH]c(=O)[nH]c2c1 (configuration not stated) | 2.7 |
| Cc1noc(C)c1-c1cc(-c2c(C3CC3)n[nH]c2C2CC2)c2[nH]c(=O)[nH]c2c1 | 3 |
